This passage reports IC50 results from ChEMBL document CHEMBL3233011, “Structural modifications of CH(OH)-DAPYs as new HIV-1 non-nucleoside reverse transcriptase inhibitors” (Bioorg Med Chem, 2014).

For this test, the target named is Human immunodeficiency virus type 1 reverse transcriptase (Human immunodeficiency virus 1, UniProt Q72547). In words: Inhibition of wild-type HIV1 reverse transcriptase p66/p51 after 40 mins by spectrophotometry.

The IC50 is the concentration at which inhibition is half-maximal. For the compound `Cc1cc(C#N)cc(C)c1Oc1nc(Nc2ccc(C#N)cc2)nc(N)c1Br` [ETRAVIRINE], the 50% inhibitory concentration (IC50) is 16 nM.
